The assay addresses Fibroblast growth factor receptor 1 (Homo sapiens, UniProt P11362). Put plainly: Inhibition of [32P]ATP incorporated (phosphorylation) into glutamate-tyrosine copolymer substrate by human fibroblast growth factor receptor 1. The procedure, abridged: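 Enzymes were intracellular tyrosine kinase domain fragments (human FGFR-1 […], mouse PDGFR-β […]), 60–75 ng per reaction, in 25 mM HEPES pH 7.4 with 150 mM NaCl, 10 mM MnCl₂, 0.2 mM sodium orthovanadate, Glu-Tyr (4:1) random copolymer substrate and varied inhibitor. Reactions were started with [³²P]ATP (0.4 μCi), run 10 min at 25 °C and stopped with 15% TCA. IC50 was taken as the concentration reducing ³²P incorporation into the copolymer.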

The chains behind the UniProt entries cited, without tags or fusion partners.
UniProt P11362, whole entry: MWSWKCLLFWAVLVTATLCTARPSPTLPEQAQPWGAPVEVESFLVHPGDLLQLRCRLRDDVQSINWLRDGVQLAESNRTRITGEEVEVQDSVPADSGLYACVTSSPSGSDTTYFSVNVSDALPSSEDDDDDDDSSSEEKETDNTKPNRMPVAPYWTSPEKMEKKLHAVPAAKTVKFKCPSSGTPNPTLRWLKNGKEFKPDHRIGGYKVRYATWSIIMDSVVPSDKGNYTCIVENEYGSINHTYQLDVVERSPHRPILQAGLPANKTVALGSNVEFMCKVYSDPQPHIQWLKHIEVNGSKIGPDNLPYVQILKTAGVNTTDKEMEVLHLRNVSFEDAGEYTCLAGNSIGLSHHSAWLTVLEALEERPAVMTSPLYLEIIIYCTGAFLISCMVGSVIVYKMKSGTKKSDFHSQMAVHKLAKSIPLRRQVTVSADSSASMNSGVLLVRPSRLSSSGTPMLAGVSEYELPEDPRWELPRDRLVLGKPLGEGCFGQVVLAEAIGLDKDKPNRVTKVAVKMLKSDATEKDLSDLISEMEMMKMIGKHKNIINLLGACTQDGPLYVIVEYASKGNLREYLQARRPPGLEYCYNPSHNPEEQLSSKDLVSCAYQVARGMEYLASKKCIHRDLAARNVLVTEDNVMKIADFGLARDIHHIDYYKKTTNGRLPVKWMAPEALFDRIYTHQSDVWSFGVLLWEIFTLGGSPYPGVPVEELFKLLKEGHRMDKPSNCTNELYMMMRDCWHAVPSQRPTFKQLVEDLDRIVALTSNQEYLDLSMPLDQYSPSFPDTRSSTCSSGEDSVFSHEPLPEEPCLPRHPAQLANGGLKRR

Structures are written as SMILES. Where only a bound is given, the exact number is not on record here.

The IC50 is the concentration that inhibits the measured activity by half.

`Cc1cc2c(cc1O)ncn2-c1ccccc1` returned an IC50 of over 50 µM.

These data come from ChEMBL document CHEMBL1132255, “Structure-activity relationships for 5-substituted 1-phenylbenzimidazoles as selective inhibitors of the platelet-derived growth factor receptor” (J Med Chem, 1999).
